The entries are a selection whose mix differs from that of the whole data set. Calls of active or inactive are those of the source. Rule as the data show it: active = inhibition above about 60%; inconclusive = no clear call, values can overlap the other calls; inactive = below that.
Test: 5' untranslated region of α-synuclein, MLPCN primary screen (AID 1813);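 also: H4 neuroglioblastoma cells stably carrying SNCA 5'UTR luciferase fusion; 0% = DMSO wells and 100% = positive control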
Details: alpha-synuclein 5'UTR reporter, inhibitor activity; hits give high values; tested at 7.5 µM

Row | Structure (SMILES) | inhibition
1 | COc1cc(C2NCCC3(OCCO3)C2(C)C)cc(OC)c1OC (stereo unspecified) | inactive: 3.21%
2 | CCOP(=O)(Nc1cccc2ccccc12)OCC | inactive: 5.21%
3 | Cc1ccc(NCCc2c([N+](=O)[O-])cc([N+](=O)[O-])cc2[N+](=O)[O-])cc1 | inactive: -147%
4 | Nc1cccc2c([As](=O)(O)O)cccc12 | inactive: 32.6%
5 | CCCOP(=S)(Nc1nc(N)cc(=O)[nH]1)OCCC | inactive: -16.7%
6 | O=[As](O)(c1cccc(O)c1)c1cccc(O)c1 | inactive: -14.2%
7 | Cc1cccc(OCC(=O)OC2CN3CCC2CC3)c1 (stereo unspecified) | inactive: -8.49%
8 | O=C(OC1CN2CCC1CC2)c1ccc(Cl)cc1 (stereo unspecified) | inactive: 11.5%
9 | COc1cc(C(=O)NCC2(N3CCOCC3)CCCCC2)cc(Cl)c1OC(C)C | inactive: -7.66%
10 | O=[As](O)(O)c1cccnc1 | inactive: 5.02%
11 | CS(=O)(=O)c1ccc(Cl)c(NC(=O)COC(=O)C(O)(c2ccccc2)c2ccccc2)c1 | inactive: 12.4%
12 | N#CCCN(C(=O)COC(=O)C(O)(c1ccccc1)c1ccccc1)c1ccc(F)cc1 | inactive: 12.1%
13 | CCOP1(=S)c2c(C)nn(CCC#N)c2N=C(c2ccc(F)cc2)N1C (stereo unspecified) | inactive: -4.85%
14 | CN(C(=O)Cc1ccccc1)[C@@H]1CC[C@]2(CCCO2)C[C@H]1N1CCCC1 | inactive: 5.96%
15 | CN(C)C(=O)c1cc([N+](=O)[O-])cc2c1-c1c(cc([N+](=O)[O-])cc1[N+](=O)[O-])C2=O | inactive: -62.5%
16 | O=[N+]([O-])c1ccc2c(c1)nnn2O | inactive: -17.2%
17 | CN(C(=O)Cc1ccc(Cl)c(Cl)c1)[C@H]1CC[C@@]2(CCCO2)C[C@@H]1N1CCCC1 | inactive: -16.8%
18 | NC(=O)Nc1ccc([As](=O)(O)O)cc1 | inactive: 10.3%
19 | O=C(O)COc1ccc([As](=O)(O)O)cc1[N+](=O)[O-] | inactive: -4.69%
20 | Nc1ccccc1[As](=O)(O)c1ccccc1 | inactive: -5.21%
21 | CCOP1(=S)c2c(C)nn(CCC#N)c2N=C(c2ccccc2F)N1C (stereo unspecified) | inactive: 4.46%
22 | O=P(Nc1nccs1)(c1ccccc1)c1nc2ccccc2s1 (stereo unspecified) | inactive: -58%
23 | O=P(Nc1nccs1)(Oc1ccccc1)Oc1ccccc1 | inactive: -19.8%
24 | CS(=O)(=O)c1cc([N+](=O)[O-])c2no[n+]([O-])c2c1 | inactive: 1.3%
25 | Nc1cccc([As](=O)(O)c2ccccc2)c1 | inactive: -1.54%
26 | O=P1(Nc2ccc(Br)cn2)COc2ccccc2OC1 | inactive: 14.9%

Row | Structure (SMILES) | inhibition
27 | Cc1ccc(OCC(=O)OC2CN3CCC2CC3)cc1 (stereo unspecified) | inactive: 3.32%
28 | O=[As](O)(c1cccs1)c1cccs1 | inactive: 5.02%
29 | O=P1(Nc2ncccn2)COc2ccccc2OC1 | inactive: -6.88%
30 | CN(C)C1(CNC(=O)c2ccc(S(C)(=O)=O)cc2)CCCCC1 | inactive: 21.5%
31 | O=C(/C=C/c1ccccc1)OC1CN2CCC1CC2 (stereo unspecified) | inactive: -8.04%
32 | Cc1nn(-c2ccccc2)c2c1P(=O)(N1CCOCC1)N(C)C(c1ccccc1)=N2 (stereo unspecified) | inactive: -4.44%
33 | Cc1ccc(C(=O)OC2CN3CCC2CC3)cc1 (stereo unspecified) | inactive: 0.707%
34 | CC1CCC(C(C)C)C(OP(=O)(Nc2ccccn2)c2ccccc2)C1 (stereo unspecified) | inactive: 11.1%
35 | CN(C(=O)Cc1ccc(Cl)c(Cl)c1)[C@@H]1CCCC[C@H]1N1CCCC1 | inactive: -10.2%
36 | CC(C)/C=N\N=C(\N)N[N+](=O)[O-] | inactive: 8.17%
37 | O=[As](O)(c1ccccc1Br)c1ccccc1Br | inactive: -6.05%
38 | CC1(CBr)Cn2c(nc3ccccc3c2=O)S1 (stereo unspecified) | inactive: 7.12%
39 | COc1ccccc1CNC(=O)COC(=O)C(O)(c1ccccc1)c1ccccc1 | inactive: 3.13%
40 | Clc1n[nH]nc1-c1nn[nH][15n]1 | inactive: -6.28%
41 | CC(C)(C)C(=O)NC(Sc1ncccn1)C(Cl)(Cl)Cl (stereo unspecified) | inactive: -13.2%
42 | CCC1=CC2Cc3nc4ccc(Cl)cc4c(N)c3C(C1)C2 (stereo unspecified) | inactive: -17.3%
43 | O=P1(Nc2ccccn2)COc2ccccc2OC1 | inactive: -0.496%
44 | CCOP(=O)(NC(=NC(C)c1ccccc1)NC(C)c1ccccc1)OCC (stereo unspecified) | inactive: 4.18%
45 | CN(CCCl)Cc1cc(Cl)c(NC2=NCCN2)c(Cl)c1 | inactive: -3.92%
46 | CCOP(=O)(Nc1ccc(C)cn1)OCC | inactive: -5.58%
47 | CCC(C)N(CC(C)C)C(=S)SC(NC(C)=O)C(Cl)(Cl)Cl (stereo unspecified) | inactive: 11.9%
48 | O=C(OC1CN2CCC1CC2)c1cccc([N+](=O)[O-])c1 (stereo unspecified) | inactive: 0.364%
49 | CCOC(=O)c1ccc(NC(=O)C(C)(CCl)SC)cc1 (stereo unspecified) | inactive: -60.5%
50 | O=C(COc1ccccc1)OC1CN2CCC1CC2 (stereo unspecified) | inactive: 6.5%
51 | O=C(Nc1ccncc1[N+](=O)[O-])c1ccc([N+](=O)[O-])cc1[N+](=O)[O-] | inactive: -23.9%

Source: PubChem BioAssay AID1813 (Broad Institute, 2009)
